In US11845759B2, “Opioid compounds and uses thereof” (priority 2018, dated 2023):

How the values were obtained:
μ-opioid receptor [1] = target: T1, μ-opioid receptor (Homo sapiens (Human), UniProt P35372); format: binding
μ-opioid receptor [2] = target: T1, μ-opioid receptor; assay: [35S]GTPγS μ-opioid receptor functional assay; format: biochemical

With `COc1ccc2c3c1OC1C(=O)CCC4(OC(C)=O)C(C2)N(C)CCC314` (centres unmarked) [14-acetyl oxycodone] the Ki (μ-opioid receptor [1]) was 18 nM, the “Ki compared with that of oxycodone (in words)” value (μ-opioid receptor [1]) was “lower” and the EC50 (μ-opioid receptor [2]) was 660 nM.
For `CCCCCCCCCCCC(=O)O[C@@]12CCC(=O)C3Oc4c(OC)ccc5c4[C@@]31CCN(C)[C@@H]2C5` (some centres unmarked) [14-lauroyl oxycodone], the Ki (μ-opioid receptor [1]) was 160 nM, the “Ki compared with that of oxycodone (in words)” value (μ-opioid receptor [1]) was “higher” and the EC50 (μ-opioid receptor [2]) was 1150 nM. The IC50 (μ-opioid receptor [2]) was 18.8 µM.
For `COc1ccc2c3c1O[C@H]1C(=O)CC[C@@]4(O)[C@@H](C2)N(C)CC[C@]314.Cl` [Oxycodone hydrochloride, reference compound], the “% Response Agonist” value (μ-opioid receptor [2]; Conc. 3 μM, criteria ≥± 50%) was 82%.
